## Measured affinities in a library of Ab-14 heavy chain variants

Source: Li et al. 2023 (doi:10.1038/s41467-023-39022-2), MIT Lincoln Laboratory and A-Alpha Bio; data file from the FLAb repository.

All variants were tested on one target, the spike HR2 peptide PDVDLGDISGINAS (SARS-CoV-2).

Parent scFv Ab-14: VH joined to VL by a (GGGGS)3 linker. Changes lie in the heavy chain CDRs alone.
VH: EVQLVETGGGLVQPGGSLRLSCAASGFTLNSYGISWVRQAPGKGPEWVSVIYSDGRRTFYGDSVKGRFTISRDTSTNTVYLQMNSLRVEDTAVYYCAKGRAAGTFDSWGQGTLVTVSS
VL: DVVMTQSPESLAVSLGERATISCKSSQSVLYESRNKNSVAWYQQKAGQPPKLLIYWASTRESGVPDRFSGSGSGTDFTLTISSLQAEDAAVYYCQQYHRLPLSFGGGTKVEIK

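The parent was found by panning a naive human phage display library on the peptide. The variants were designed computationally from a first round of random CDR variants and then made and measured. Several design methods are mixed in this list. AlphaSeq pools MATa yeast showing the antibodies with MATalpha yeast showing the peptide. After mating in shaken culture at 30 °C for 16 h, diploids were selected and their barcode pairs sequenced. Each replicate has its own calibration line, from reference interactions of the BCL2 family. The assay was run in six technical replicates.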

The parent's heavy chain CDRs are GFTLNSYGIS, VIYSDGRRTFYGDSVK, GRAAGTFDS; each variant's own CDRs replace them letter for letter.
This list holds designs with at most six substitutions.
The Kd shown is the geometric mean over detected replicates; a lower Kd is a better binder.
"not detected" marks a missing value. The strain was present, yet no cells mated with the target were sequenced in any replicate, which points to weak or no binding.
Of ten entries with the parent sequence, four were seen in most replicates (averages 2.2 nM to 240 nM), three in one and three in none, so single entries are noisy.

CDR-H1	CDR-H2	CDR-H3	Kd (apparent)	seen in
GFNLNSYGIS	VIYSDGRRTFYADPVK	GRQAGTFDS	16 nM	6 of 6
GFTLNQYGIS	VIYSDGRRTFYHDSVK	GRLAGTFDT	3.2 nM	6 of 6
GFELNEYGIS	VIYSDGRRTFYGDSVK	GTAAQTFDS	not detected	0 of 6
GFTLNEYGIS	VIYSDGRRTFYTDSVK	GRNAGTFDS	510 pM	6 of 6
GFTLNSYGIS	VIYSDGKRTFYGDSVK	GRVAGTFDK	92 nM	5 of 6
GFDLNSYGIS	VIYSDGRRTFYGDSVK	GRTAGTFKS	270 nM	4 of 6
GFDLNSYGIS	VIYSDGRRTFYGDDVK	GEAAGTFDS	1.6 nM	6 of 6
GFTLQSYGIS	VIYSDGRRTFYGDSVK	GRAAGRTDS	not detected	0 of 6
GFELNSYGIS	VIYSDGRRTFYSDSVK	GQAAGTFDS	1.6 nM	6 of 6
GFTLNMYGIS	VIYSDGRRTFYLDSVK	GIAAKTFDT	not detected	0 of 6
GFTLNSYGIS	VIYSDGQRTFYDDSVK	GQLAGTFDS	8.5 nM	4 of 6
GFSLNSYGIS	VIYSDGRRTFYGDSVK	GHAAGTFDK	8.4 nM	6 of 6
GFTLNSYGIS	VIYSDGRRTAYGDSVK	GRAAGTFDW	280 nM	1 of 6
GFTLNSYGIS	VIYSDGIRTFYGDSVK	GQTAGTFDV	3.6 nM	6 of 6
GETLNSYGIS	VIYSDGRRTFYGDSVK	GDAAGTFDL	360 nM	2 of 6
GFALNSYGIS	VIYSDGMRTFYGDSVK	GRAAGTSDS	100 nM	4 of 6
GFSLNSYGIS	VIYSDGRKTFMGDRVK	GRDAGTFDS	not detected	0 of 6
GFTLNSYGIS	VIYSDGRRTFYSDSVK	GQAAGTFDV	6.2 nM	6 of 6
GFTLNNYGIS	VIYSDGRRTFYSDSVK	GRQAGTFDS	not detected	0 of 6
GFTLNSYGIS	VIYSDGRRTFYDDSVK	GQLAGTFDF	not detected	0 of 6
GFTLKSYGIS	VIYADGRRTFYGDSVK	GRAAGTFDL	4.4 nM	6 of 6
GFTLESYGIS	VIYSDGRRTFYSDSVK	GNAAGTFDS	1.8 nM	4 of 6
GFELNSYGIS	VIYSDGKRTFYGDSVK	GQTAGTFDS	1.1 nM	6 of 6
GFDLNSYGIS	VIYSDGRRTFYGDSVK	GEAAGTFKS	not detected	0 of 6
GFTLNDYGIS	VIYSDGRRTAYMDSVK	GRLAGTFDS	2.0 nM	6 of 6
GFTLNSYGIS	VIYADGRRTFYGDSVK	GEDAGTFDS	1.5 nM	6 of 6
GFWLNEYGIS	VIYSDGRRTFYGDSVK	GQTAGTFDT	2.9 nM	1 of 6
GFELNSYGIS	VIYSDGLRTFYGDSVK	GRTAGTFDS	3.8 nM	6 of 6
GFELNSYGIS	VIYSDGRRTFYADMVK	GKAAGTFDS	not detected	0 of 6
GFTLNEYGIS	VIYSDGRRTFYTDSMK	GRFAGTFDS	not detected	0 of 6
GFDLNSYGIS	VIYSDGRRTFYGDSVK	GATAGTFDS	3.5 nM	6 of 6
GFELNEYGIS	VIYSDGRRTFYIDSVK	GRQAGTFDS	3.2 nM	6 of 6
GFTLNSYGIS	VIYSDGRRTFYTDSVR	GRAAGTFDS	71 nM	4 of 6
MFSLNSYGIS	VIYSDGRRTFYADSVK	GRTAGTFDS	5.1 nM	6 of 6
GFNLNSYGIS	VIYSDGRRTFYHDSVK	GQVAGTFDS	1.8 nM	6 of 6
GFTLESYGIS	VIYSDGRRTFYDDSVK	GQLAGTFDS	5.6 nM	6 of 6
GFTLNSYGIS	VIYSDGRRTFYGDSVK	GRAAGTNDA	61 nM	1 of 6
GFTLNEYGIS	VIYSDGRRTFYSDSVK	GQKAGTFDS	4.8 nM	5 of 6
GFTLNSYGIS	VIYADGRRTFYDDSVK	GREAGDFDG	not detected	0 of 6
GFTLNSYGIS	VIYSDGIRTFYDDSVK	GQLAGTFDS	4.8 nM	5 of 6
GFELNSYGIS	VIYSDGRRTFYADSVK	GRLAGTFDK	10 nM	6 of 6
GFTLNSYGIS	VIYADGRRTFYGDSVK	GKEAGTFDS	210 pM	6 of 6
GFTLNEYGIS	VIYSDGRRTFYGDSVK	GRAAGTFMK	not detected	0 of 6
GFTLNSYGIS	VIYSDGMRTFYGDSVK	RRAAGTFDL	not detected	0 of 6
GFSLNSYGIS	VIYADGRRTFYGDSVK	GEAAGTFDT	430 pM	6 of 6
GFSLNSYGIS	VIYSDGRRTWYGDSVK	GRTAGTFDS	1.2 nM	6 of 6
GFSLNSYGIS	VIYSDGRRTFYIDQVK	GNAAGTFDS	not detected	0 of 6
GYTLNEYGIS	VIYSDGRRTAYGDSVK	GRPAGTFDL	21 nM	1 of 6
GFTLNEYGIS	VIYSDGRRTFYDDSVK	GRHAGTFDS	1.1 nM	6 of 6
GFTLLFYGIS	VIYSDGRRTIYGDSVK	GREASTFDS	not detected	0 of 6
GFELNSYGIS	VIYADGRRTFYSDSVK	GKAAGTFDS	680 pM	6 of 6
GFTLNEYGIS	VIYSDGRRTFYGDSVK	GRAAGTFCK	20 nM	3 of 6
GFDLNEYGIS	VIYADGVRTFYSDSVK	GEAAGTFDS	41 nM	3 of 6
GETLDSYGIS	VIYSDGLRTFYEDSVK	GRAAGTFDS	not detected	0 of 6
GFSLNSYGIS	VIYSDGRRTFYSDSVK	GKAAGTFDS	1.7 nM	6 of 6
GFDLNSYGIS	VIYSDGRRTFYADSVK	GRTAGTFDN	1.0 nM	6 of 6
GFDLNSYGIS	VIYSDGHRTFYVDSVK	GRTAGTFDS	5.3 nM	6 of 6
GFELNSYGIS	VIYSDGRRTFYADSVK	GREAGTFDA	14 nM	6 of 6
KFSLNEYGIS	VIYSDGRRTFYGDSVK	GKTAGTFDS	1.1 nM	6 of 6
GFSLNSYGIS	VIYSDGRRTFYADTVK	GRTAGTFDS	1.1 nM	6 of 6
GFSLNSYGIS	VIYSDGRRTFYGDNVK	GWTAGTFDS	2.1 nM	6 of 6
GFELNSYGIS	VIYADGRRTFYGDSVK	GEAAGTFDT	580 pM	6 of 6
GFKLNSYGIS	VIYSDGRRTFYDDSVK	GQLAGTFDS	7.5 nM	3 of 6
GFGLNEYGIS	VIYSDGRRTFYGDQVK	GRTAGTFDS	3.3 nM	6 of 6
GFQLNEYGIS	VIYSDGRRTFYIDHVK	GKAAGTFDS	25 nM	3 of 6
GFTLNSYGIN	VIYSDGRRTFYGDSVK	GRAAGTFDS	not detected	0 of 6
GFELNEYGIS	VIYSDGRRTFYGDSVK	GRGAGTFDL	120 nM	4 of 6
MFSLNEYGIS	VIYSDGKRTFYGDSVK	GRTAGTFDS	1.9 nM	4 of 6

A selection of 5 entries from above:

{"CDR-H1": "GFTLNSYGIS", "CDR-H2": "VIYSDGRRTFYTDSVR", "CDR-H3": "GRAAGTFDS", "Kd (apparent)": "71 nM", "seen in": "4 of 6"}
{"CDR-H1": "GFSLNSYGIS", "CDR-H2": "VIYSDGRRTFYIDQVK", "CDR-H3": "GNAAGTFDS", "Kd (apparent)": "not detected", "seen in": "0 of 6"}
{"CDR-H1": "GFDLNSYGIS", "CDR-H2": "VIYSDGRRTFYGDDVK", "CDR-H3": "GEAAGTFDS", "Kd (apparent)": "1.6 nM", "seen in": "6 of 6"}
{"CDR-H1": "GFDLNSYGIS", "CDR-H2": "VIYSDGRRTFYGDSVK", "CDR-H3": "GEAAGTFKS", "Kd (apparent)": "not detected", "seen in": "0 of 6"}
{"CDR-H1": "GFSLNSYGIS", "CDR-H2": "VIYSDGRRTFYADTVK", "CDR-H3": "GRTAGTFDS", "Kd (apparent)": "1.1 nM", "seen in": "6 of 6"}

Values of this round are not directly comparable with the first-round values of the same sequences.
Three control strains display no target. For all heavy chain designs, 1% of the pairings with them gave a signal, with a median of 120 nM and one signal in twenty below 7.0 nM, so weak values seen in few replicates may be background.
The authors averaged sequences with at least three values out of six and counted those with two or fewer as poor binders.